Tests used:
Assay type in all cases: cell-based
BT474-M3-Aro cells = assay: Aromatase-overexpressing BT474-M3 proliferation assay (WST-1); conditions: androstenedione (A4) 200 nM and heregulin 2 nM, three days; ratio 10:20:1 MM-111 to letrozole to lapatinib
Experimental: After overnight incubation, indicated treatments were introduced in the presence of androstenedione (A-4; 200 nM) and heregulin (HRG; 2 nM). […] Cell viability in the presence of 5% charcoal-stripped FBS was set as control (100%).
Androstenedione is a steroid hormone that is converted to estrogen by aromatase.

phospho-AKT (pAKT) = assay: Cell signaling assay, pAKT ELISA, BT474-M3; conditions: BT474-M3 cells, stimulation with 5 nM heregulin for 10 min; read-out: IC50, reduction of pAKT levels
Experimental: (§1) Cell lysates are probed for phospho-ErbB3 (pErbB3), and phospho-AKT (pAKT) by ELISA as described previously (Schoeberl et al, 2009) Inhibitor IC50 values are calculated by fitting dose-response data to a 4-parameter sigmoidal curve (GraphPad Prism®, GraphPad Software, Inc., La Jolla, Calif.).
(§2) CRL-1504®), cells were incubated with serial dilutions of either inhibitor for 15 minutes, 1 hour, 4 hours, and 24 hours followed by stimulation with 5 nM heregulin for 10 min Amounts of pAKT and pErbB3 were measured by ELISA essentially as described.

BT474-M3 cells [1] = assay: Apoptosis assay (Annexin V/PI FACS) in spheroids; conditions: MM-111 100 nM, lapatinib 33 nM, 72 hours
phospho-ErbB3 (pErbB3) = assay: Cell signaling assay, pErbB3 ELISA, BT474-M3
Experimental: as §1
Model-generated dose-response curves overlay the experimental data (FIG. 7a). […] Untreated and heregulin-stimulated cells were probed for pErbB3 and pAKT and the IC50 was calculated (FIG. 7b).
as §2

BT474-M3 cells [2] = assay: Spheroid in vitro tumor model assay; conditions: dose range
BT-474-M3 cells = assay: T-DM1 and heregulin dose matrix cell viability, BT-474-M3; conditions: T-DM1 0 μg/ml, with MM-111 1 μM, 72 h

Compound: N#Cc1ccc(C(c2ccc(C#N)cc2)n2cncn2)cc1 [letrozole]
- cell growth inhibition (BT474-M3-Aro cells): did not result in significant inhibition of spheroid cell growth

Compound: MM-111
- IC50 (phospho-AKT (pAKT)): 10 nM
- total apoptotic cells (BT474-M3 cells [1]): about 20%
- cell growth inhibition (BT474-M3-Aro cells): inhibited cell proliferation to a similar extent
- IC50 (phospho-ErbB3 (pErbB3); BT474-M3 cells, stimulation with 5 nM heregulin for 10 min, read-out: IC50, reduction of pErbB3 levels): 3 nM
- spheroid growth (BT474-M3 cells [2]; estrogen-stimulated, six days): showed inhibitory effects on spheroid growth
- cell viability (BT-474-M3 cells; HRG 0 nM): 100.0001 % of control
- cell viability (BT-474-M3 cells; HRG 0.313 nM): 116.4349 % of control
- cell viability (BT-474-M3 cells; HRG 0.625 nM): 123.4726 % of control
- cell viability (BT-474-M3 cells; HRG 1.25 nM): 132.3855 % of control
- cell viability (BT-474-M3 cells; HRG 2.5 nM): 131.572 % of control
- cell viability (BT-474-M3 cells; HRG 5 nM): 146.0121 % of control
- cell viability (BT-474-M3 cells; HRG 10 nM): 157.2453 % of control

Compound: C[C@]12CC[C@@H]3c4ccc(O)cc4C[C@@H](CCCCCCCCC[S+]([O-])CCCC(F)(F)C(F)(F)F)[C@H]3[C@@H]1CC[C@@H]2O (stereo partly drawn) [fulvestrant, reference compound]
- spheroid growth (BT474-M3 cells [2]; dual ligand (estrogen and heregulin) stimulated): inhibited spheroid growth
- spheroid growth (BT474-M3 cells [2]; estrogen-stimulated, six days): showed inhibitory effects on spheroid growth
- spheroid growth (BT474-M3 cells [2]; heregulin (HRG)-stimulated): did not inhibit heregulin stimulated spheroid growth

Compound: CS(=O)(=O)CCNCc1ccc(-c2ccc3ncnc(Nc4ccc(OCc5cccc(F)c5)c(Cl)c4)c3c2)o1 [lapatinib]
- cell growth inhibition (BT474-M3-Aro cells): did not result in growth inhibition except at high concentrations
- inhibition of heregulin-activated signaling (pErbB3 and pAKT) (phospho-ErbB3 (pErbB3); BT474-M3, 5 nM heregulin 10 min vs unstimulated): not an effective inhibitor of heregulin-activated signaling

— US20150202287A1, “COMBINATION THERAPIES COMPRISING ANTI-ERBB3 AGENTS” (Merrimack Pharmaceuticals, Inc., priority 2012, published 2015)
